Here are results for 1 compound from ChEMBL document CHEMBL1141384, “Discovery of a potent, selective, and orally active human epidermal growth factor receptor-2 sheddase inhibitor for the treatment of cancer” (J Med Chem, 2007).

A word on the IC50: it is the concentration that gives 50% inhibition. A lower IC50 goes with greater potency in that assay.

The target in this test is T1, Disintegrin and metalloproteinase domain-containing protein 10 (Homo sapiens, UniProt O14672).
T1 sequence (O14672 whole entry): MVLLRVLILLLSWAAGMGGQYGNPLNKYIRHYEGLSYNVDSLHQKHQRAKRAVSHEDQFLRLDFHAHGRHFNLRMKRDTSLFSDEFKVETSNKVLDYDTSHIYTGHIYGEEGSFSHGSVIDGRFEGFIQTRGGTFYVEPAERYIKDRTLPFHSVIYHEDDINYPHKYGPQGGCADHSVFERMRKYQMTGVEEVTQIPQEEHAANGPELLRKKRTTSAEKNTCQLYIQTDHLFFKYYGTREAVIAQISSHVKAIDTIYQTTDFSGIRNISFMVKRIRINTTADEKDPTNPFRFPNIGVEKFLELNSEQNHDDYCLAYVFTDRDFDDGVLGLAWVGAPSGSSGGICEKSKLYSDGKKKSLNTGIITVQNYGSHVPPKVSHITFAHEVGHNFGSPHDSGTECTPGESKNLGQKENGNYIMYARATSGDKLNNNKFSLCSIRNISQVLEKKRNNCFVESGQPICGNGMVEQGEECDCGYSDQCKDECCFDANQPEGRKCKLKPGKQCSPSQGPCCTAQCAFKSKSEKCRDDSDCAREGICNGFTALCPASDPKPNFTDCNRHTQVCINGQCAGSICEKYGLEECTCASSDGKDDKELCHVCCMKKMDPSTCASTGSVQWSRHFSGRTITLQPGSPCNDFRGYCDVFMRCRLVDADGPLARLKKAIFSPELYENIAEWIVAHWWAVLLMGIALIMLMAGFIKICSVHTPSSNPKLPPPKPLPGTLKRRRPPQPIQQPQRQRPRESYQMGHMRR
The test is described as follows: Inhibition of ADAM10.

With `O=C(NO)[C@H]1CC2(CC2)CN[C@@H]1C(=O)N1CC=C(c2ccccc2)CC1`, it took 33 nM to reach half-maximal inhibition (IC50).
